{
  "source": "patent US20080132484A1",
  "about": "“Method for Identifying Inhibitors Using a Homology Model of Polo-Like Kinase 1” (CYCLACEL LIMITED, priority 2003, published 2008)",
  "target": "CDK2 (Homo sapiens, UniProt P24941)",
  "assay": "CDK2 inhibition",
  "type": "biochemical",
  "details": "Table 12",
  "data": [
    {"substance": "Purvalanol A", "values": [
      {"measurement": "IC50", "value": "0.9 ± 2", "unit": "nM"}
    ]}
  ]
}
